This is an account of results in ChEMBL document CHEMBL2016464, “Identification of Inhibitors of NOD1-Induced Nuclear Factor-κB Activation” (ACS Med Chem Lett, 2011).

Each structure is given as a SMILES string.

Assay [1] relates to HEK-293T. It is filed as cell-based. To be noted: Homo sapiens.
Assay [2] deals with HEK-293T. It counts as cell-based. To be noted: Homo sapiens. The source holds these as a separate data set.

Take `Cc1ccc(S(=O)(=O)n2c(N)nc3ccccc32)cc1`: the Ratio IC50 in the assay with HEK-293T [1] and in the assay on HEK-293T [2] was above 36 throughout.
